Laboratory results: ChEMBL document CHEMBL1126861 (J Med Chem, 1993)

Protein sequences, listed by entry. Tags and fused reporters are not part of them.
UniProt P33535, whole entry: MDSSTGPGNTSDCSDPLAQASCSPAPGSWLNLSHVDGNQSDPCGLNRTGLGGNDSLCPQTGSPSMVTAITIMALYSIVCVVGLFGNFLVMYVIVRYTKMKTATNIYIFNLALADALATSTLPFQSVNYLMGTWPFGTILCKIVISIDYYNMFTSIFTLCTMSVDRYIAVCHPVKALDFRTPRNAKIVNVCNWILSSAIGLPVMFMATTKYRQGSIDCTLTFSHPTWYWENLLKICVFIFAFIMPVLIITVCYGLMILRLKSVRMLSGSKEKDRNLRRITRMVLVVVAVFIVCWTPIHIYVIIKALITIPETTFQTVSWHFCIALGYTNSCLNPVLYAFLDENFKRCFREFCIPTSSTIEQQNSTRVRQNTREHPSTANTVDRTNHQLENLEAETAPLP

Target: Mu-type opioid receptor (Rattus norvegicus, UniProt P33535)
Assay: Tested for binding affinity against mu opioid receptor fby displacing [3H]- DAMGO radioligand from rat brain membrane preparations

SMILES: Oc1ccc2c3c1O[C@H]1c4[nH]c5ccccc5c4C[C@@]4(O)[C@@H](C2)N(CC2CC2)CC[C@]314 [NALTRINDOLE]
- pKi: 8.41

pKi: −log10 of the molar value.
